Source: ChEMBL document CHEMBL3885881, “DrugMatrix”

Experiments:
Rattus norvegicus [1] = species on record: Rattus norvegicus; type: toxicity, organism-based, Sprague-Dawley; conditions: in vivo, sc, 0 mg/kg, 24 h, route mini-PUMP - SUBCUTANEOUS, dose level Control, time 1 day, vehicle 100 % SALINE
Rattus norvegicus [2] = species on record: Rattus norvegicus; assay: DrugMatrix - Regimen: Daily Repeat; type: toxicity, organism-based, Sprague-Dawley; design: regimen Daily Repeat, gender Male, age 6-8 weeks; conditions: in vivo, vehicle 100 % SALINE; for HEMATOCRIT / MONOCYTE / NEUTROPHIL / ABSOLUTE BASOPHIL / ABSOLUTE EOSINOPHIL / ABSOLUTE LYMPHOCYTE / ABSOLUTE MONOCYTE / ABSOLUTE SEGMENTED NEUTROPHIL / BASOPHIL / EOSINOPHIL / ERYTHROCYTE COUNT / HEMOGLOBIN / LEUKOCYTE COUNT / LYMPHOCYTE / MEAN CORPUSCULAR HEMOGLOBIN / MEAN CORPUSCULAR HEMOGLOBIN CONCENTRATION / MEAN CORPUSCULAR VOLUME / NUCLEATED RED BLOOD CELLS / PLATELET COUNT: tissue Blood; for TOTAL BILIRUBIN / URIC ACID / GLUCOSE / ALANINE AMINOTRANSFERASE / ALBUMIN / ALKALINE PHOSPHATASE / ASPARTATE AMINOTRANSFERASE / BLOOD UREA NITROGEN / CARBON DIOXIDE / CHLORIDE / CHOLESTEROL / CREATINE PHOSPHOKINASE / CREATININE / LACTATE DEHYDROGENASE / LIPASE / PHOSPHORUS / POTASSIUM / SODIUM / TOTAL PROTEIN: tissue Plasma
[3] = iv, 0.004 mg/kg, 72 h, dose level Low, time 3 day
[4] = iv, 0.004 mg/kg, 120 h, dose level Low, time 5 day
[5] = iv, 0.0375 mg/kg, 72 h, dose level M1, time 3 day
[6] = iv, 0.0375 mg/kg, 120 h, dose level M1, time 5 day
[7] = sc, 0 mg/kg, 72 h, route mini-PUMP - SUBCUTANEOUS, dose level Control, time 3 day
[8] = sc, 0 mg/kg, 120 h, route mini-PUMP - SUBCUTANEOUS, dose level Control, time 5 day
[9] = sc, 0 mg/kg, […], route mini-PUMP - SUBCUTANEOUS, dose level Control, time 14 day
[10] = sc, […], route mini-PUMP - SUBCUTANEOUS, dose 0.77 mg/Kg, dose level High, time 14 day

## CNC[C@H](O)c1ccc(O)c(O)c1 [EPINEPHRINE]
Rattus norvegicus [1]; tissue Blood
  HEMATOCRIT: 34.52%
Rattus norvegicus [1]; tissue Plasma
  GLUCOSE: 179.83 mg/dL
Rattus norvegicus [2]; [3]
  HEMATOCRIT: 37.23%
  MONOCYTE: 0%
  NEUTROPHIL: 7%
  TOTAL BILIRUBIN: 0.17 mg/dL
  URIC ACID: 1.63 mg/dL
Rattus norvegicus [2]; [4]
  HEMATOCRIT: 35.47%
  MONOCYTE: 0%
  NEUTROPHIL: 11.67%
  GLUCOSE: 170.67 mg/dL
  TOTAL BILIRUBIN: 0.17 mg/dL
  URIC ACID: 2.3 mg/dL
Rattus norvegicus [2]; [5]
  ABSOLUTE BASOPHIL: 0 CELLS/uL
  ABSOLUTE EOSINOPHIL: 88 CELLS/uL
  ABSOLUTE LYMPHOCYTE: 7423.33 CELLS/uL
  ABSOLUTE MONOCYTE: 0 CELLS/uL
  ABSOLUTE SEGMENTED NEUTROPHIL: 1222 CELLS/uL
  BASOPHIL: 0%
  EOSINOPHIL: 1%
  ERYTHROCYTE COUNT: 5.23 x10E6/uL
  HEMATOCRIT: 32.57%
  HEMOGLOBIN: 12.4 G/DL
  LEUKOCYTE COUNT: 8.73 x10E3/uL
  LYMPHOCYTE: 85%
  MEAN CORPUSCULAR HEMOGLOBIN: 23.73 pg
  MEAN CORPUSCULAR HEMOGLOBIN CONCENTRATION: 38.1 G/DL
  MEAN CORPUSCULAR VOLUME: 62.33 fL
  MONOCYTE: 0%
  NEUTROPHIL: 14%
  NUCLEATED RED BLOOD CELLS: 0 /100WBC
  PLATELET COUNT: 1430.67 x10E3/uL
  ALANINE AMINOTRANSFERASE: 51 u/L
  ALBUMIN: 4.2 G/DL
  ALKALINE PHOSPHATASE: 368.67 u/L
  ASPARTATE AMINOTRANSFERASE: 89 u/L
  BLOOD UREA NITROGEN: 13.67 mg/dL
  CARBON DIOXIDE: 28.33 mmol/L
  CHLORIDE: 102.67 MEQ/L
  CHOLESTEROL: 75.33 mg/dL
  CREATINE PHOSPHOKINASE: 191.67 u/L
  CREATININE: 0.17 mg/dL
  GLUCOSE: 140.67 mg/dL
  LACTATE DEHYDROGENASE: 94.67 u/L
  LIPASE: 9 u/L
  PHOSPHORUS: 11.47 mg/dL
  POTASSIUM: 5.84 MEQ/L
  SODIUM: 150.1 MEQ/L
  TOTAL BILIRUBIN: 0.1 mg/dL
  TOTAL PROTEIN: 6 G/DL
  URIC ACID: 0.63 mg/dL
Rattus norvegicus [2]; [6]
  ABSOLUTE BASOPHIL: 0 CELLS/uL
  ABSOLUTE EOSINOPHIL: 53.33 CELLS/uL
  ABSOLUTE LYMPHOCYTE: 13463.33 CELLS/uL
  ABSOLUTE MONOCYTE: 0 CELLS/uL
  ABSOLUTE SEGMENTED NEUTROPHIL: 1616.67 CELLS/uL
  BASOPHIL: 0%
  EOSINOPHIL: 0.33%
  ERYTHROCYTE COUNT: 5.77 x10E6/uL
  HEMATOCRIT: 36.07%
  HEMOGLOBIN: 13.67 G/DL
  LEUKOCYTE COUNT: 15.13 x10E3/uL
  LYMPHOCYTE: 89%
  MEAN CORPUSCULAR HEMOGLOBIN: 23.7 pg
  MEAN CORPUSCULAR HEMOGLOBIN CONCENTRATION: 37.9 G/DL
  MEAN CORPUSCULAR VOLUME: 62.57 fL
  MONOCYTE: 0%
  NEUTROPHIL: 10.67%
  NUCLEATED RED BLOOD CELLS: 0 /100WBC
  PLATELET COUNT: 1337 x10E3/uL
  ALANINE AMINOTRANSFERASE: 49.67 u/L
  ALBUMIN: 4.37 G/DL
  ALKALINE PHOSPHATASE: 404 u/L
  ASPARTATE AMINOTRANSFERASE: 70 u/L
  BLOOD UREA NITROGEN: 17.33 mg/dL
  CARBON DIOXIDE: 28 mmol/L
  CHLORIDE: 102.67 MEQ/L
  CHOLESTEROL: 68 mg/dL
  CREATINE PHOSPHOKINASE: 147.67 u/L
  CREATININE: 0.16 mg/dL
  LACTATE DEHYDROGENASE: 75 u/L
  LIPASE: 8.67 u/L
  PHOSPHORUS: 13.17 mg/dL
  POTASSIUM: 6.55 MEQ/L
  SODIUM: 147.57 MEQ/L
  TOTAL BILIRUBIN: 0.17 mg/dL
  TOTAL PROTEIN: 6.03 G/DL
  URIC ACID: 1.87 mg/dL
Rattus norvegicus [2]; [7]
  HEMATOCRIT: 36.95%
  MONOCYTE: 2%
  NEUTROPHIL: 10.33%
  GLUCOSE: 136.83 mg/dL
  URIC ACID: 1.4 mg/dL
Rattus norvegicus [2]; [8]
  HEMATOCRIT: 36.22%
  NEUTROPHIL: 17.67%
  CREATININE: 0.16 mg/dL
  GLUCOSE: 152.67 mg/dL
  TOTAL BILIRUBIN: 0.17 mg/dL
  URIC ACID: 1.27 mg/dL
Rattus norvegicus [2]; [9]
  HEMATOCRIT: 35.4%
  MONOCYTE: 2.17%
  GLUCOSE: 182.33 mg/dL
  URIC ACID: 1.38 mg/dL
Rattus norvegicus [2]; [10]
  HEMATOCRIT: 39.46%
  MONOCYTE: 2.4%
  NEUTROPHIL: 12.6%
  GLUCOSE: 180.4 mg/dL
  URIC ACID: 1.42 mg/dL
